For this experiment, the species on record is Homo sapiens. In words: Selectivity ratio of pKi for displacement of 2-[125I]iodomelatonin from human melatonin MT1 receptor stably expressed in human HEK293 cell membrane to pKi for displacement of 2-[125I]iodomelatonin from human melatonin MT2 receptor stably expressed in human HEK293 cell membrane.

With `COC(=O)NCCc1c(C(O)c2ccccc2)[nH]c2ccc(OC)cc12` (configuration not stated), the Ratio pKi worked out at 0.9.

On to `COc1ccc2[nH]c(C(O)c3ccc(Cl)cc3)c(CCNC(C)=O)c2c1` (configuration not stated), for which the Ratio pKi worked out at 0.86.

For the origin of these results see ChEMBL document CHEMBL5346896, “Development of indolealkylamine derivatives as potential multi-target agents for COVID-19 treatment” (Eur J Med Chem, 2023).
